2 molecules from US7026327B2, “Pyrimidine derivatives useful as selective COX-2 inhibitors” (Glaxo Group Limited, priority 2001, dated 2006) can be followed below.

By UniProt entry, the sequences of proteins in these tests, tags left out. Residues count along the entry.
UniProt P23219, 24-599: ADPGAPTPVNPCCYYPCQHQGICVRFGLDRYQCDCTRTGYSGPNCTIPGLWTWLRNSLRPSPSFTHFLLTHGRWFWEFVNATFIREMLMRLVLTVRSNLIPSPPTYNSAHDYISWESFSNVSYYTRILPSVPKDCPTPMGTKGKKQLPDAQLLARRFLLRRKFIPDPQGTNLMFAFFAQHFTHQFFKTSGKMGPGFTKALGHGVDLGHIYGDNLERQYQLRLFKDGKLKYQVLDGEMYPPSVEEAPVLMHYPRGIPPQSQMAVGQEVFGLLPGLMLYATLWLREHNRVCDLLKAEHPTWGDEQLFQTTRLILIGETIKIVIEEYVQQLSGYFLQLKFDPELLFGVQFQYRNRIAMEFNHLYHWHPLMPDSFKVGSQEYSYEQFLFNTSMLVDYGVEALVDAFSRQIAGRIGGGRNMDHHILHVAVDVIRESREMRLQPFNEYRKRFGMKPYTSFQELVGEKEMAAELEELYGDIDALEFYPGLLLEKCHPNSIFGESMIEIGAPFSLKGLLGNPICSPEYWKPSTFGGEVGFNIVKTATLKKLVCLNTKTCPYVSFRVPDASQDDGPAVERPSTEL

The target in the experiment is COX-1 (Homo sapiens, UniProt P23219). Put plainly: Microsomal assay, COX-1. It is filed as biochemical.

By IC50 is commonly meant the concentration at which inhibition is half-maximal. Read a low IC50 as inhibition by little substance.

A value given as a limit tells only on which side of the number the result lay.

The molecule `CCCCOc1nc(-c2ccc(S(C)(=O)=O)cc2)cc(C(F)(F)F)n1` [Example 10, 2-Butoxy-4-[4-(methylsulfonyl)phenyl]-6-(trifluoromethyl)pyrimidine] displayed an IC50 greater than 30 µM.

Consider `CS(=O)(=O)c1ccc(-c2cc(C(F)(F)F)nc(OCC3CCCC3)n2)cc1` [Example 9], for which the half-maximal inhibitory concentration (IC50) is 69 µM.
